Biological target: Bacterial 70S ribosome (Bacteria) (UniProt P0A7V0+P60723+P0AG67+P0A7R5+P0A7R9+P0A7S3+P0A7S9+P0AG59+P0ADZ4+P0A7T3+P0AG63+P0A7T7+P0A7U3+P0A7U7+P68679+P0A7V3+P0A7V8+P0A7W1+P02358+P02359+P0A7W7+P0A7X3+P0A7J3+P0A7J7+P0AA10+P0ADY3+P02413+P0ADY7+P0AG44+P0C018+P0A7K6+P0A7L0+P0A7L3+P0AG48+P61175+P0ADZ0+P60624+P68919+P0A7L8+P0A7M2+P0A7M6+P60422+P0AG51+P0A7N1+P0A7M9+P0A7N4+P0A7N9+P0A7P5+P0A7Q1+Q2EEQ2+P0A7Q6+P60438+P62399+P0AG55+P0A7K2)
Assay: Binding affinity to Staphylococcus aureus ATCC 43300 50S ribosome assessed as dissociation rate constant by SPR analysis
Type: subcellular
Outline: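 The 50S subunit was purified from ATCC 43300 by sucrose cushion, a 7–30% sucrose gradient and PEG precipitation. Compounds at 100 µM in DMSO were photo-crosslinked onto the chip and printed four times each. Ribosome at 200–3200 nM in PBST (pH 7.4, 0.1% Tween 20) was run at 4 °C: association 600 s, then dissociation 360 s, both at 0.5 µL/s. Surface was regenerated with glycine-HCl pH 2.0.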

Amino acid sequences for entries named in this document (tags omitted). A change or cut given only in a name is not applied to a line headed by its entry.
UniProt P0A7J3: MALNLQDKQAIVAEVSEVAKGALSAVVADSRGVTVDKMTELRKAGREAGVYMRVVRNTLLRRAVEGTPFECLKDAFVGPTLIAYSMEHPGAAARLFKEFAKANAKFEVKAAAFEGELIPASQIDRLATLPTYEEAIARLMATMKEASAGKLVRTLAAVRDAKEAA
UniProt P0A7L0: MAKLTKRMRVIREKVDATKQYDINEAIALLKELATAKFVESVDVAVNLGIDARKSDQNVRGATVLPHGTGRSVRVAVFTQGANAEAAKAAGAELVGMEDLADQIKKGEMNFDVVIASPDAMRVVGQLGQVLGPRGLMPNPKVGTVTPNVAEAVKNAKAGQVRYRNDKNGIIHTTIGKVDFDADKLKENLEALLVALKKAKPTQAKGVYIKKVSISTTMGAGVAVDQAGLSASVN
UniProt P0A7N1: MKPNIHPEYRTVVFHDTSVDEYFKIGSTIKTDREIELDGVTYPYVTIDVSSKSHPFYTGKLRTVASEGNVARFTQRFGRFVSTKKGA
UniProt Q2EEQ2: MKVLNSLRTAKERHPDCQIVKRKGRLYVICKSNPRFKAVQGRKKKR

C=C[C@]1(C)C[C@@H](OC(=O)CSCCN(CC)CC)[C@]2(C)[C@H](C)CC[C@]3(CCC(=O)[C@H]32)[C@@H](C)[C@@H]1O [TIAMULIN]
Kdiss: 2.5 10^-8M

— ChEMBL document CHEMBL4814060, “Design, synthesis and biological evaluation of novel pleuromutilin derivatives as potent anti-MRSA agents targeting the 50S ribosome” (Bioorg Med Chem, 2021)
